The text below walks through data of US6414005B1, “Heterocyclic compounds having nos inhibitory activities” (Chugai Seiyaku Kabushiki Kaisha, priority 1997, dated 2002).

The experiment deals with T1, eNOS (type 3) (Bos taurus, UniProt P29473).
T1 construct: Cow pulmonary arterial endothelium cells (CPAE) were cultured in a MEM medium containing 20% FBS; endogenous in cells; host or cells: CPAE (cow pulmonary arterial endothelium cells), detergent extract, 100,000 x g supernatant
As to the kind of experiment: NOS activity, conversion of L-[3H]arginine to L-[3H]citrulline, crude enzyme of eNOS. It counts as biochemical. As to conditions: crude enzyme from cow pulmonary arterial endothelium cells (CPAE); 100 nM L-[3H]arginine, 37° C., 10 min.

As to `N=C(NCCC[C@H](N)C(=O)O)N[N+](=O)[O-]` [L-NA, N^G-nitro-L-arginine], the IC50 was determined as 68.2 nM.

For orientation: IC50 means the concentration at which inhibition is half-maximal. A lower IC50 goes with inhibition by little substance.
